Test results: patent EP2042507A1, “Insecticidal derivatives of phosphorylated aminoheterocycles” (dated 2009)

What was measured:
[1] = tested on: Phaedon cochleariae; assay: Phaedon cochleariae - test (spray application); settings: application rate of 500 g/ha, Chinese cabbage leaf-disks, mustard beetle larvae
[2] = tested on: Myzus persicae; assay: Myzus persicae - test (spray application); settings: application rate of 500 g/ha, Chinese cabbage leaf-disks, all instars of the green peach aphid
[3] = tested on: Tetranychus urticae; assay: Tetranychus urticae - test; OP-resistant (spray application); settings: application rate of 20 g/ha, French bean, all stages of the two spotted spidermite

Measured: activity (mortality in %)

CCCSP(=S)(OCC)N1CCO/C1=N\[C@H]1CCc2ccccc21 (stereo partly drawn)
≥ 80%: [1] | [2] | [3]
